For 2 compounds, fold change (FC) results are on record in ChEMBL document CHEMBL4359863, “Structure-guided development of purine amide, hydroxamate, and amidoxime for the inhibition of non-small cell lung cancer” (Eur J Med Chem, 2019).

Protein sequences, listed by entry. Tags and fused reporters are not part of them. Lines headed by an entry give the natural chain unless they say otherwise; changes in a name come on top.
UniProt P46527, whole entry: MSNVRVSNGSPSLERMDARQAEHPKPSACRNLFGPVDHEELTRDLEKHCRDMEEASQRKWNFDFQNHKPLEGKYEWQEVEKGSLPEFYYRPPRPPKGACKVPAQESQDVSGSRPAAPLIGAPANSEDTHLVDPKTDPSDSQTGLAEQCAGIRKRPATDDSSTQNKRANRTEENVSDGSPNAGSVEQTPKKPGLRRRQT
UniProt P52630: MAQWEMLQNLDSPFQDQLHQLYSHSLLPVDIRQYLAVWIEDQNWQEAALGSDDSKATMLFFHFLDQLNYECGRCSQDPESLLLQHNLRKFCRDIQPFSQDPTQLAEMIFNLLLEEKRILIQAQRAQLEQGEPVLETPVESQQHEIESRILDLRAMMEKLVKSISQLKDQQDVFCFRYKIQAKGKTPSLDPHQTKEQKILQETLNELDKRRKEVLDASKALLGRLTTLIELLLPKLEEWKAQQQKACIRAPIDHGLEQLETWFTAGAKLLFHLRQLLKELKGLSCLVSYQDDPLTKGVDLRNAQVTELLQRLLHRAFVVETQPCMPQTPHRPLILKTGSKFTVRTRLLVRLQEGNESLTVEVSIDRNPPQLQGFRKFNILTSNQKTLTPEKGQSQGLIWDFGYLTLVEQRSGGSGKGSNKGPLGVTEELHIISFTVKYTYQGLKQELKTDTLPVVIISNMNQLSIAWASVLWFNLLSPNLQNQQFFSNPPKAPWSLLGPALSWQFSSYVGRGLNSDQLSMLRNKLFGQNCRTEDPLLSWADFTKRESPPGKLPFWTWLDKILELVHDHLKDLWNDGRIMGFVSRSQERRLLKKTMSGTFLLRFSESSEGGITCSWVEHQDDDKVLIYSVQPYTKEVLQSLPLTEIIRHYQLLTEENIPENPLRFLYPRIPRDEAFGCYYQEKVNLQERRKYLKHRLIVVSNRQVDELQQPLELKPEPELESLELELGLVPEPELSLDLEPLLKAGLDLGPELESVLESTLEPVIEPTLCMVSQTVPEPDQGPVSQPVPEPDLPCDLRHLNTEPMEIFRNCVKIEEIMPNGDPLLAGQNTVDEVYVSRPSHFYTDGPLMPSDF
UniProt P04637, whole entry, looked up: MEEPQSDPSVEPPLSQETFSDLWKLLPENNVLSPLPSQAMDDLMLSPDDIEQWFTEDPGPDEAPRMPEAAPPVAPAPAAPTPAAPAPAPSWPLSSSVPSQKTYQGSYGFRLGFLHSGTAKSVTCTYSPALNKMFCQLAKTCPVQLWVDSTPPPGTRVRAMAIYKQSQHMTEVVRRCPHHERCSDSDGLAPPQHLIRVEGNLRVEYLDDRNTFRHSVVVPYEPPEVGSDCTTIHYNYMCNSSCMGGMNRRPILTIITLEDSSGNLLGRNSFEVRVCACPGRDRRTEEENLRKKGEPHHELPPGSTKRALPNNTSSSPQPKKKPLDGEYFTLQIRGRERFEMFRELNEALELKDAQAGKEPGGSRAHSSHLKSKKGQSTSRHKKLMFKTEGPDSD
UniProt P05412, whole entry: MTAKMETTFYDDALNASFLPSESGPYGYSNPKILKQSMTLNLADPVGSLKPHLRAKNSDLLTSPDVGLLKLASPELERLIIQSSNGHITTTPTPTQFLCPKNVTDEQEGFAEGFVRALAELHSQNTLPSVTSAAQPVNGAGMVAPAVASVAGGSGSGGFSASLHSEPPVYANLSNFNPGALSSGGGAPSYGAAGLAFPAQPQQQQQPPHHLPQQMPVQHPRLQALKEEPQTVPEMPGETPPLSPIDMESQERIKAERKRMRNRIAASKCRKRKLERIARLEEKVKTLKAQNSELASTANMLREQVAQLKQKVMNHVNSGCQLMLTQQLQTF
UniProt P06239: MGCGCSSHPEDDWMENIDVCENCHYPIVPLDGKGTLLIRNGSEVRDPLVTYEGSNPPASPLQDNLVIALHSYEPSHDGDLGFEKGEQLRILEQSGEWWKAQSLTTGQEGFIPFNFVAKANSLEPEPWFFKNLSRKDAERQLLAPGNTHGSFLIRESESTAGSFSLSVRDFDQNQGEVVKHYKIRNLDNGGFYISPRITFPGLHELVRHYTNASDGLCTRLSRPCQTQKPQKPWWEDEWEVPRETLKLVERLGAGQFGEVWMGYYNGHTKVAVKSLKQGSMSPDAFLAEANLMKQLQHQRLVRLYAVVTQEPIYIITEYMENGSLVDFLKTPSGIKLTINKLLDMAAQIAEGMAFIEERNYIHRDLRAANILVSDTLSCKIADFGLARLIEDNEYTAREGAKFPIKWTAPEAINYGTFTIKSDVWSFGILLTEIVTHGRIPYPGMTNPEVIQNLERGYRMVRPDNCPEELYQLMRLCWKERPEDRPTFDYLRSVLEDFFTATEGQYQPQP
UniProt P51692: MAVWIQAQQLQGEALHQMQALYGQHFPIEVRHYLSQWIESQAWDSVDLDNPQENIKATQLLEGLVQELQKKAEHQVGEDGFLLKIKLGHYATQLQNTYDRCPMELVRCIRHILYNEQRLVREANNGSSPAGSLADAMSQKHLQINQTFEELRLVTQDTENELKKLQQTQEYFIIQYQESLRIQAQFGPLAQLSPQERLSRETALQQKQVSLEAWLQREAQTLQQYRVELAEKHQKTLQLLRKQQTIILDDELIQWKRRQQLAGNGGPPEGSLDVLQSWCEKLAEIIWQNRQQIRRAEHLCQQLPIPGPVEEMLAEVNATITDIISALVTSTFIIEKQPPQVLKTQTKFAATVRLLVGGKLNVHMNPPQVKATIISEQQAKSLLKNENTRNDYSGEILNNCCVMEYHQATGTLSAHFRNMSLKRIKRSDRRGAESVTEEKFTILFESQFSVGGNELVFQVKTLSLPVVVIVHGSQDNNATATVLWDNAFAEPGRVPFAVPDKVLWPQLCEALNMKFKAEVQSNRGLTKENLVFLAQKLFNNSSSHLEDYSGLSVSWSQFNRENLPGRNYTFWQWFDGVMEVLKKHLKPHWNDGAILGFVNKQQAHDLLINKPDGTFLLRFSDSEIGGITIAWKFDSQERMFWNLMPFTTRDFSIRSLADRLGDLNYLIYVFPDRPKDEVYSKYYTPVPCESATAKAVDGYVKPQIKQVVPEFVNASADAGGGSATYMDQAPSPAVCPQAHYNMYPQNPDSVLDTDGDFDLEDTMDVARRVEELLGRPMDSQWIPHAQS
UniProt Q15418, whole entry, looked up: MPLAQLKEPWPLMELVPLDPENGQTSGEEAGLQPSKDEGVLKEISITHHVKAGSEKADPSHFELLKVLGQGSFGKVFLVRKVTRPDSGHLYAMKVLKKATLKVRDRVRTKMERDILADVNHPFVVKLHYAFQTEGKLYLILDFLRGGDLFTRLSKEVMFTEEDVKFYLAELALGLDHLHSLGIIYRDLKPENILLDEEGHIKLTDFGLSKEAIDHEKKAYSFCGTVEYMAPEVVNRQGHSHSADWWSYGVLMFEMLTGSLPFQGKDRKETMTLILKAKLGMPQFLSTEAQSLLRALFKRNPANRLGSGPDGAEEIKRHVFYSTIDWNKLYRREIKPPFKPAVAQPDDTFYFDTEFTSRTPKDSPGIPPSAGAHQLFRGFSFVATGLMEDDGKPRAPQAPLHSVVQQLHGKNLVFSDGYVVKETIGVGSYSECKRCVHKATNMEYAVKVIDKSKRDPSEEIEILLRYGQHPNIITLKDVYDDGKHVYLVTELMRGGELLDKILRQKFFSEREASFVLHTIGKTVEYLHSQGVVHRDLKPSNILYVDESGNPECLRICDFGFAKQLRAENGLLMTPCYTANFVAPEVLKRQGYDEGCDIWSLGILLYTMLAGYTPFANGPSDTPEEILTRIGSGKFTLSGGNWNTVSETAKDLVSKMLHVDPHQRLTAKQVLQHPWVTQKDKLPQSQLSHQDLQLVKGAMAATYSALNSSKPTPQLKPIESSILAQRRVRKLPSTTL
UniProt Q9Y243: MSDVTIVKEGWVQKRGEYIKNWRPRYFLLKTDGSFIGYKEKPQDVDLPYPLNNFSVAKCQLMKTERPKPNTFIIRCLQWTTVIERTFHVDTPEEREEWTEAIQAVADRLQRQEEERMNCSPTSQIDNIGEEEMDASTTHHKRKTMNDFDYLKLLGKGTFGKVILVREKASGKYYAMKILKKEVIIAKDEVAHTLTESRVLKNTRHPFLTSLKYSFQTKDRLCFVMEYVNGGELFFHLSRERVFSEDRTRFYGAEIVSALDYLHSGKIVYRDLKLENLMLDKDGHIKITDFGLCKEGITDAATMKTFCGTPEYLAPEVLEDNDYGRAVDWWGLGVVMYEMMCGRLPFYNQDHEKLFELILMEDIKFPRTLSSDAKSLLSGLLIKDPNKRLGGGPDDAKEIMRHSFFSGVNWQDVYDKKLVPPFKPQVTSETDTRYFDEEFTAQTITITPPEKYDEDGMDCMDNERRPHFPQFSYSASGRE
UniProt P31749: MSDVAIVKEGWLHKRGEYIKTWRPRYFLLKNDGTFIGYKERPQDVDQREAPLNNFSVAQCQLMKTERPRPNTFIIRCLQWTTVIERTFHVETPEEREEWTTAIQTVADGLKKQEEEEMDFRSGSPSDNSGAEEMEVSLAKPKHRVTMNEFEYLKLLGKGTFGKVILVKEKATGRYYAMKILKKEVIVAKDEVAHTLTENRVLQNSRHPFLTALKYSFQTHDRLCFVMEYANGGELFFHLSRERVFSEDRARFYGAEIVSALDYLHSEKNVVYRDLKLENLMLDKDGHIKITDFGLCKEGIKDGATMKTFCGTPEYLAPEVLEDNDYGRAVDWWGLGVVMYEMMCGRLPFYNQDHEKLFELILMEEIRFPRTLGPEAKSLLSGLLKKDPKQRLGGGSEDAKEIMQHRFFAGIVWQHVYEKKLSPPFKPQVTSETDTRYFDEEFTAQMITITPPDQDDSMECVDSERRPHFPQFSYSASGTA
UniProt P07948: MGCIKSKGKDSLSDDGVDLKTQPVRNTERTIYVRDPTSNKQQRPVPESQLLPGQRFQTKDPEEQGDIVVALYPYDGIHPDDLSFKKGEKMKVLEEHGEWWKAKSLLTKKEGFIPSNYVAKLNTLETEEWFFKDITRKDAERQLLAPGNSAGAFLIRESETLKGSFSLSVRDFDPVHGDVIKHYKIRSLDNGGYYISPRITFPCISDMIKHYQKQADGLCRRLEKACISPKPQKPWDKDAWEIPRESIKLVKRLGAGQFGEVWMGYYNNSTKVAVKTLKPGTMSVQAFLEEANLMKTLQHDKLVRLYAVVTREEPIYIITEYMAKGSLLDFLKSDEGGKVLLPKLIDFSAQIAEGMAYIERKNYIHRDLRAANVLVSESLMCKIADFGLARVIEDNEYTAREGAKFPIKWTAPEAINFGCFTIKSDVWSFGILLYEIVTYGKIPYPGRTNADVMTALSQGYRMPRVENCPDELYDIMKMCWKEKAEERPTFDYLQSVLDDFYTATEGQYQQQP
UniProt P19174: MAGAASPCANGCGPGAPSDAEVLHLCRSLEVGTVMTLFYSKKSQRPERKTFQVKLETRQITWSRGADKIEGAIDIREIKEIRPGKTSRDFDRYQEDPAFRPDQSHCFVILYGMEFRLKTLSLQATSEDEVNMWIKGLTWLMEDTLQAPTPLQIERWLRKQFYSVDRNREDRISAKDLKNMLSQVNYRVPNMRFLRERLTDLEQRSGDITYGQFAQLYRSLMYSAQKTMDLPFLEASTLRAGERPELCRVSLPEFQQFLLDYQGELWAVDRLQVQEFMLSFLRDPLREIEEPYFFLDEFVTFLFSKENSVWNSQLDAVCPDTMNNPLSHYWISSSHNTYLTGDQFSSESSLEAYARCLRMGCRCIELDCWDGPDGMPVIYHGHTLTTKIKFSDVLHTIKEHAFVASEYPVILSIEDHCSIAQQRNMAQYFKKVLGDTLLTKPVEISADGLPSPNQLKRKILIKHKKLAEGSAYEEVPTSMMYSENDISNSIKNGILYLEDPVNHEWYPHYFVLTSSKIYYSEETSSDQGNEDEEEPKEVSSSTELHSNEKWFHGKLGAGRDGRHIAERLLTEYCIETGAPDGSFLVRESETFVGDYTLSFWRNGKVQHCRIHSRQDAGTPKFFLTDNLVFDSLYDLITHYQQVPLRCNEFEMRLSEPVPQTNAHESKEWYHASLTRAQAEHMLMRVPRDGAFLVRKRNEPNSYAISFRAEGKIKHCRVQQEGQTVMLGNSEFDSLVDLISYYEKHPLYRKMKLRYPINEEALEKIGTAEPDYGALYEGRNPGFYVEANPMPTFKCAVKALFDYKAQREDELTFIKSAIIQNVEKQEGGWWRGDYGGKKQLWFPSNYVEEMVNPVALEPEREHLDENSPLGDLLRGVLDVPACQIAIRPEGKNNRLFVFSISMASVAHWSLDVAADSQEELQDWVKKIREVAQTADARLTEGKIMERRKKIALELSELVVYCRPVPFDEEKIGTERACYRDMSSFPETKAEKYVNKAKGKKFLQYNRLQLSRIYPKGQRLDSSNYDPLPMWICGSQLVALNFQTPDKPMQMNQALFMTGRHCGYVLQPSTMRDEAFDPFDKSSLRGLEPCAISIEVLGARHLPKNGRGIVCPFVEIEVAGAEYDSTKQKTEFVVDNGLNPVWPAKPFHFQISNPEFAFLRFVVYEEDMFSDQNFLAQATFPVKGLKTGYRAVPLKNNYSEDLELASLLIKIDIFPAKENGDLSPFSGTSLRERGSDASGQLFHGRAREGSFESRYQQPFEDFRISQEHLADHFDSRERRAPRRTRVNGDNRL

SMILES strings stand for the structures.

Holding throughout (format): cell-based
The target in assay [1] is Cyclin-dependent kinase inhibitor 1B (Homo sapiens) (UniProt P46527). Kind of assay: Effect on p27 at T198 phosphorylation level in human NCI-H1975 incubated for 12 hrs by human phosphokinase proteome profiler array relative to control.
For assay [2], the target named is Signal transducer and activator of transcription 2 (Homo sapiens) (UniProt P52630). As to the kind of experiment: Effect on STAT2 at Y689 phosphorylation level in human NCI-H1975 incubated for 12 hrs by human phosphokinase proteome profiler array relative to beta-catenin.
Assay [3] has as its target Cellular tumor antigen p53 (Homo sapiens) (UniProt P04637). As to the kind of experiment: Effect on p53 at S392 phosphorylation level in human NCI-H1975 incubated for 12 hrs by human phosphokinase proteome profiler array relative to control.
Assay [4] shares this target. As to the kind of experiment: Effect on p53 at S46 phosphorylation level in human NCI-H1975 incubated for 12 hrs by human phosphokinase proteome profiler array relative to control.
Assay [5] concerns the target Transcription factor Jun (Homo sapiens) (UniProt P05412). As to the kind of experiment: Effect on c-Jun at S63 phosphorylation level in human NCI-H1975 incubated for 12 hrs by human phosphokinase proteome profiler array relative to beta-catenin.
In assay [6] the target is Tyrosine-protein kinase Lck (Homo sapiens) (UniProt P06239). Kind of assay: Effect on LCK at Y394 phosphorylation level in human NCI-H1975 incubated for 12 hrs by human phosphokinase proteome profiler array relative to beta-catenin.
Assay [7] concerns the target T1, STAT5A/STAT5B (Homo sapiens) (UniProt P42229+P51692). Kind of assay: Effect on STAT5a/b at Y694/Y699 phosphorylation level in human NCI-H1975 incubated for 12 hrs by human phosphokinase proteome profiler array relative to beta-catenin.
The target in assay [8] is Mitogen-activated protein kinase 14 (Homo sapiens) (UniProt Q16539). Kind of assay: Effect on p38alpha at T180/Y182 phosphorylation level in human NCI-H1975 incubated for 12 hrs by human phosphokinase proteome profiler array relative to control.
In assay [9] the target is c-Jun N-terminal kinase, JNK (Homo sapiens) (UniProt P45983+P53779+P45984). Kind of assay: Effect on JNK1/2/3 at T183/Y185,T221/Y223 phosphorylation level in human NCI-H1975 incubated for 12 hrs by human phosphokinase proteome profiler array relative to beta-catenin.
In assay [10] the target is T2, Signal transducer and activator of transcription 5A (Homo sapiens) (UniProt P42229).
T2 sequence (whole entry): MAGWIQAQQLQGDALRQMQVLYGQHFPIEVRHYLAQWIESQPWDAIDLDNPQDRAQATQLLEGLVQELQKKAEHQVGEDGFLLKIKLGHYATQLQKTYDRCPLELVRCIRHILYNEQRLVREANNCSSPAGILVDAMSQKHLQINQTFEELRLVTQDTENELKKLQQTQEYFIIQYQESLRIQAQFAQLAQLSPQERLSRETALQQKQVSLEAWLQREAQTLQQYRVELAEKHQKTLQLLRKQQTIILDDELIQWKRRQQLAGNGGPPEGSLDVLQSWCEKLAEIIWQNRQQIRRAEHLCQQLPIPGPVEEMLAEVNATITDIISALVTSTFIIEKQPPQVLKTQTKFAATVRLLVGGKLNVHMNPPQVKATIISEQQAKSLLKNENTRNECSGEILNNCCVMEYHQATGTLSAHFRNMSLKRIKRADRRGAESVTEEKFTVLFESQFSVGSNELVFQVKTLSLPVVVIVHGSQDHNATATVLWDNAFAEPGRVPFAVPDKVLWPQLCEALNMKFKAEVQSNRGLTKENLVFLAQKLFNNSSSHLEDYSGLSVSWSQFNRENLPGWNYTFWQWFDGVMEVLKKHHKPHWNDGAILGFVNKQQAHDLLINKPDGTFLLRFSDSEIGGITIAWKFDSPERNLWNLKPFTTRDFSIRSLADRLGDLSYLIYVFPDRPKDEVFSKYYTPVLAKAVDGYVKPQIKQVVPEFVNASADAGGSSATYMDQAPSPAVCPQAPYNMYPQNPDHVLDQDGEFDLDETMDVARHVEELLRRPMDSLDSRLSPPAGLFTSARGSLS
As to the kind of experiment: Effect on STAT5a at Y694 phosphorylation level in human NCI-H1975 incubated for 12 hrs by human phosphokinase proteome profiler array relative to control.

Assay [11] addresses RPS6KA1/RPS6KA2/RPS6KA3 (Homo sapiens) (UniProt P51812+Q15349+Q15418). Kind of assay: Effect on RSK1/2/3 at S380/S386/S377 phosphorylation level in human NCI-H1975 incubated for 12 hrs by human phosphokinase proteome profiler array relative to control.
In assay [12] the target is Signal transducer and activator of transcription 2 (Homo sapiens) (UniProt P52630). As to the kind of experiment: Effect on STAT2 at Y689 phosphorylation level in human NCI-H1975 incubated for 12 hrs by human phosphokinase proteome profiler array relative to control.
For assay [13], the target named is T3, Serine/threonine-protein kinase AKT (Homo sapiens) (UniProt P31751+Q9Y243+P31749). Kind of assay: Effect on Akt1/2/3 at T308 phosphorylation level in human NCI-H1975 incubated for 12 hrs by human phosphokinase proteome profiler array relative to beta-catenin.
Assay [14] concerns the target T1, STAT5A/STAT5B (Homo sapiens). Kind of assay: Effect on STAT5a/b at Y694/Y699 phosphorylation level in human NCI-H1975 incubated for 12 hrs by human phosphokinase proteome profiler array relative to control.
Assay [15] concerns the target Tyrosine-protein kinase Lyn (Homo sapiens) (UniProt P07948). As to the kind of experiment: Effect on LYN at Y397 phosphorylation level in human NCI-H1975 incubated for 12 hrs by human phosphokinase proteome profiler array relative to beta-catenin.
Assay [16] deals with Tyrosine-protein kinase Lck (Homo sapiens) (UniProt P06239). As to the kind of experiment: Effect on LCK at Y394 phosphorylation level in human NCI-H1975 incubated for 12 hrs by human phosphokinase proteome profiler array relative to control.
Assay [17] concerns the target Transcription factor Jun (Homo sapiens) (UniProt P05412). As to the kind of experiment: Effect on c-Jun phosphorylation at S63 residue in human NCI-H1975 cells incubated for 12 hrs by human phosphokinase proteome profiler array relative to control.
Assay [18] concerns the target Tyrosine-protein kinase Lyn (Homo sapiens) (UniProt P07948). As to the kind of experiment: Effect on LYN at Y397 phosphorylation level in human NCI-H1975 incubated for 12 hrs by human phosphokinase proteome profiler array relative to control.
Assay [19] addresses Protein-tyrosine kinase 2-beta (Homo sapiens) (UniProt Q14289). Kind of assay: Effect on PYK2 at Y402 phosphorylation level in human NCI-H1975 incubated for 12 hrs by human phosphokinase proteome profiler array relative to control.
The target of assay [20] is 1-phosphatidylinositol 4,5-bisphosphate phosphodiesterase gamma-1 (Homo sapiens) (UniProt P19174). As to the kind of experiment: Effect on PLCgamma1 at Y783 phosphorylation level in human NCI-H1975 incubated for 12 hrs by human phosphokinase proteome profiler array relative to beta-catenin.
Assay [21] concerns the target Tyrosine-protein kinase Fgr (Homo sapiens) (UniProt P09769). Kind of assay: Effect on FGR at Y412 phosphorylation level in human NCI-H1975 incubated for 12 hrs by human phosphokinase proteome profiler array relative to beta-catenin.
The target in assay [22] is T3, Serine/threonine-protein kinase AKT (Homo sapiens). As to the kind of experiment: Effect on Akt1/2/3 at T308 phosphorylation level in human NCI-H1975 incubated for 12 hrs by human phosphokinase proteome profiler array relative to control.
The target is the same in assay [23]. As to the kind of experiment: Effect on Akt1/2/3 at S473 phosphorylation level in human NCI-H1975 incubated for 12 hrs by human phosphokinase proteome profiler array relative to control.

For `CCOc1ccc(-c2nc(/C(N)=N/O)c3[nH]c(=O)n(-c4ccccc4OC)c3n2)cc1`, the fold change (FC) in assay [1] was determined as 1.65; in [2] it was 0.88; in assay [3], 1.3; in assay [4] it was 1.16; in assay [5], 1.75; in [6] it was 0.78. The fold change (FC) amounted to 0.97 in assay [7]; 1.03 in [8]; 0.87 in [9]; 0.78 in assay [10]; 1.55 in assay [11]; 0.76 in assay [12]. Further, the fold change (FC) in assay [13] worked out at 1.46; in [14], 0.83; in [15] it was 0.84; in assay [16], 0.66; in assay [17], 1.49; in assay [18], 0.72. For the same compound, the fold change (FC) came out at 1.43 in assay [19]; 1.83 in assay [20]; 1.18 in assay [21]; 1.25 in assay [22]; 0.67 in assay [23].
Consider `CCOc1ccc(-c2nc(C(=O)NO)c3[nH]c(=O)n(-c4ccccc4OC)c3n2)cc1`, for which the fold change (FC) is 1.75 in assay [1]; 1.15 in [2]; 0.98 in assay [3]; 1.03 in [4]; 1.32 in assay [5]; 0.73 in [6]. Further, the fold change (FC) came out at 0.93 in assay [7]; 0.82 in assay [8]; 0.92 in [9]; 0.67 in [10]; 1.05 in assay [11]; 1.02 in [12]. In addition, the fold change (FC) in assay [13] was 0.98; in [14], 0.83; in assay [15], 0.73; in assay [16], 0.65; in [17], 1.17; in assay [18], 0.65. The fold change (FC) in [19] came to 1.13; in assay [20], 1.62; in assay [21], 0.36; in assay [22] it was 0.87; in assay [23], 0.55.
